The nature of one data set: in vivo. To be noted: both, Kunming (KM), mouse, po.
Another data set has as its system KM mice. Conditions: mouse, in vivo.

Consider `Cc1cc2c(s1)Nc1ccccc1N=C2N1CCN(C)CC1` [olanzapine], for which the 50% effective dose (ED50) in “in vivo” stood at 2.23 mg/kg.
For the compound `Cc1nc2n(c(=O)c1CCN1CCC(c3noc4cc(F)ccc34)CC1)CCCC2` [risperidone], the “EPS at effective dosage (in words)” value in the data set with KM mice is reported as “did not cause EPS at effective dosage”. Moreover, in “in vivo”, the ED50 stood at 0.92 mg/kg.

(Values after patent US9018213B2, “Alicyclic[c] benzopyrone derivatives and uses thereof” (Huazhong University of Science & Technology, priority 2011, dated 2015).)
